## Binding of CDR-mutated scFvs to a peptide of the spike HR2 region

The measurements come from Li et al. 2023 (doi:10.1038/s41467-023-39022-2) through the FLAb antibody collection.

The target is the same throughout: PDVDLGDISGINAS, from the HR2 region of SARS-CoV-2 spike.

Ab-14 is the parent antibody, in scFv form: VH, then a 15-residue (Gly4Ser)3 linker, then VL. The light chain is unchanged in all variants.
VH: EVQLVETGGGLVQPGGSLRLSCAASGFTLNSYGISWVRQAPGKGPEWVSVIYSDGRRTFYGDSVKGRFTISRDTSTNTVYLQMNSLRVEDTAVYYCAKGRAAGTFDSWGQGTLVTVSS
VL: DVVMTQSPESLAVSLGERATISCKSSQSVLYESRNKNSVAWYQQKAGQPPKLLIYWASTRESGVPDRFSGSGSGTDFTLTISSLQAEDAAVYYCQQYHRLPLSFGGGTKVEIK

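The parent was found by panning a naive human phage display library on the peptide. The variants were designed computationally from a first round of random CDR variants and then made and measured. Several design methods are mixed in this list. Affinity was read by AlphaSeq, a pooled yeast mating assay with surface-displayed partners. Pairs that bind mate more often; barcode pairs of the diploids are counted by sequencing. The ratio of observed to expected reads was calibrated, replicate by replicate, on BCL2-family standards whose Kd was known from biolayer interferometry. Mating was done six times.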

The parent's heavy chain CDRs are GFTLNSYGIS, VIYSDGRRTFYGDSVK, GRAAGTFDS; each variant's own CDRs replace them letter for letter.
The read-out is the apparent dissociation constant on a log10 scale (nM): the lower, the stronger.
Averages over replicates are reported, and they cover detected replicates only.
An entry "no signal" has no value in the source: the pair was not observed among the diploids in any replicate. This suggests poor binding but is not conclusive.
Entries are sorted by rising average, undetected variants last.
The authors averaged sequences with at least three values out of six and counted those with two or fewer as poor binders.

CDR-H1,CDR-H2,CDR-H3,"log10 Kd (nM), mean",seen in
GFDLDEYGIS,VIYADGVRTAYTDSVK,GTNAGTFDV,-0.74,6 of 6
GFNLNEYGIS,VIYADGRRKFYADSVK,GNTAGTFDL,-0.73,6 of 6
GFDLNEYGIS,VIYADGRRTYYADSVK,GEIAGTFDQ,-0.66,5 of 6
GFDLDEYGIS,VIYADGSRTAYTDSVK,GNVAGTFDV,-0.63,6 of 6
GFNLDEYGIS,VIYADGRRTFYADSVK,GQVAGTFDN,-0.61,6 of 6
GFSLDEYGIS,VIYADGRRTFYADSVK,GNLAGTFDS,-0.59,6 of 6
GFDLNDYGIS,VIYADGRRTAYIDSVK,GEVAGTFDV,-0.52,6 of 6
GFDLNEYGIS,VIYADGVRTFYADDVK,GQNAGTFDV,-0.45,6 of 6
GFDLDEYGIS,VIYADGMRTFYTDSVK,GENAGTFDA,-0.45,6 of 6
GFDLNEYGIS,VIYADGRRTAYVDSVK,GVNAGTFDV,-0.42,6 of 6
GFDLDEYGIS,VIYADGMRTAYADSVK,GSNAGTFDV,-0.41,6 of 6
GFNLNEYGIS,VIYADGRRTFYSDSVK,GEQAGTFDV,-0.40,6 of 6
GFDLNEYGIS,VIYADGRRTAYIDSVK,GHTAGTFDV,-0.39,6 of 6
GFDLNEYGIS,VIYADGVRTAYADSVK,GNQAGTFDL,-0.38,6 of 6
GFDLEDYGIS,VIYADGRRTFYSDSVK,GENAGTFDI,-0.23,6 of 6
GFDINEYGIS,VIYADGMRTAYADSVK,GQNAGTFDV,-0.07,6 of 6
GFDLNEYGIS,VIYADGVRTFYADDVK,GENAGTFDI,-0.05,6 of 6
GFTLNEYGIS,VIYSDGRRTFYGDSVK,GKAAGTFDL,-0.04,6 of 6
GFSLKEYGIS,VIYSDGRRTFYGDSVK,GRAAGTFDS,-0.02,6 of 6
GFDLDEYGIS,VIYADGMRTAYADSVK,GQNAGTFDM,-0.01,6 of 6
GFDLNEYGIS,VIYADGMRTFYTDSVK,GEFAGTFDE,0.01,6 of 6
GFDLNEYGIS,VIYADGLRTAYADSVK,GNTAGTFDV,0.04,6 of 6
GFDLNSYGIS,VIYSDGKRTFYGDSVK,GQAAGTFDA,0.06,4 of 6
GFWLNEYGIS,VIYADGRRTFYGDSVK,GTAAGTFDS,0.17,6 of 6
GFELNMYGIS,VIYSDGRRTFYADSVK,GTAAGTFDS,0.18,6 of 6
GFDLNEYGIS,VIYADGMRTGYTDSVK,GNEAGTFDS,0.19,3 of 6
GFTLNSYGIS,VIYADGRRTFYGDSVK,GRAAGTFDS,0.28,36 of 36
GFDLNSYGIS,VIYSDGRRTFYDDSVK,GLLAGTFDS,0.30,6 of 6
GFSLNSYGIS,VIYSDGRRTFYGDSVK,GRQAGTFDK,0.32,5 of 6
GFNINEYGIS,VIYADGQRLSYDDNVK,GEITGTFLS,0.36,6 of 6
GFTLNEYGVS,VIYADGRRTFYSDSVK,GRQAGTFDL,0.38,6 of 6
GFLLNDYGIS,VIYSDGRRTFYIDSVK,GRAAGTFDS,0.56,6 of 6
GFTLNEYGIS,VIYSDGRRTFYGDSVK,GRFAGTFDI,0.59,6 of 6
GFTLNEYGIS,VIYSDGRRTFYGDSVK,GCIAGTFDK,0.78,6 of 6
GFTLNEYGIS,VIYSDGRRTFYADSVK,GRAAGTFIS,0.81,4 of 6
GFTLESYGIS,VIYADGRRTFYGDGVK,GRAAGTFDS,0.86,3 of 6
KFDLNSYGIS,VIYSDGRRTFYQDSVK,GRTAGTFDS,0.86,6 of 6
GFWLNSYGIS,VIYADGRRTFYGDSVK,GRTAGTFDS,1.06,6 of 6
GFELNSYGIS,VIYSDGRRTFYQDDVK,GEAAGTFDS,1.22,6 of 6
GVTLNSYGIS,VIYADGRRTFYGDSVK,GRAAGTFDS,1.36,6 of 6
GFTLDDYGIS,VIYSDGRRTFYGDSVK,GRAAGTALS,1.57,1 of 6
GFTLNSYGIS,VIYSDGRRTFYSDSVK,GRAGGTYDS,1.57,1 of 6
GFHLNSYGIS,VIYSDGRRTFYHDSVK,GRTAGTFDS,1.76,4 of 6
GFTLNDYGIS,VIYSDGRRTQYDDSVK,GRAAGTFDS,1.78,3 of 6
GFTLNSYGIS,VIYSDGKRTFYGDQVK,GKAAGTFDS,2.00,5 of 6
GFTLNDYGIS,VIYSDGRRTFYGDSVK,GRTAGTFVS,2.30,4 of 6
GFHLNSYGIS,VIYSDGRRTFYKDSVK,GEAAGTFDS,2.31,5 of 6
GQDINEYGIS,VIYADGLRKAYSQQVK,GQNLGDVEV,2.48,2 of 6
GFTLNSYGIS,VIYSDGRRTFYGDSYK,GRAGGTFDS,no signal,0 of 6
GFTLESYGIS,VIYSDGRRTFYQDSVK,GRAAGTFDK,no signal,0 of 6
GFKLDEQGIS,VIYADGRRKGYTDSVK,GTNGINFTL,no signal,0 of 6
GFDLNEYGIS,VIYADGMRTYYADSVK,GNNAGTFDM,no signal,0 of 6
GYSLEEYGIS,VIYADGRRQAYADNVK,GMSGNDGMF,no signal,0 of 6
GFTLNSYGIS,VIYSDGRRTFYTDSTK,LRAAGTFDG,no signal,0 of 6
GFTLNSYGIS,VIKSDGRRTFYDDSVK,GQLAGTFDS,no signal,0 of 6
GFTLNSYGQS,VIYSDGRRTFYSDSVK,GRAGGTFDS,no signal,0 of 6
GFTLNSYGIS,VIYSDGIRTFYGDSVK,GREAGTFRS,no signal,0 of 6
GFTLNSYGIS,VIYSDGRRTFYGDSVK,GRAMGTFDA,no signal,0 of 6
GFTLDSYGIS,VIYSDGNRTFYGDSVK,GRAAGTALS,no signal,0 of 6
GFTLEKYGIS,VIYSDGRRTFYGDSVK,GRAAGTFTS,no signal,0 of 6
GFTLNSYGIS,VIYSDGRRTFYANSVK,GEAMGTFDS,no signal,0 of 6
GFTLNSYGIS,VIYSDGCRTFYIGSVK,GRIAGTFDS,no signal,0 of 6
KFTLNEYGIS,VIYSDGRRTFYMDSVK,GRFAGTFDS,no signal,0 of 6
GFNLDEYGIS,VIYADGMRTFVSNAVK,GHNADFRFV,no signal,0 of 6
GFTLNSYGIS,VIYSDGRRTFYGDSVK,GRVGGLFDS,no signal,0 of 6
GFTLNSYGIS,VIYSDGRRTFYGDSVK,GRAAGHFDS,no signal,0 of 6
GFSLNEYGIS,VIYSDGRRTFYCDSVK,GKAAGTFDL,no signal,0 of 6
GFTLDSYGIS,VIKSDGRRTFYGDSVK,GRYAGTAYS,no signal,0 of 6
GFQIEEYGIS,VIYADGMRSFYVDNVK,NGMNVSGIV,no signal,0 of 6
GFTLNSYGIS,VIYSDGKRTFYGDSVK,CRAAGTFDQ,no signal,0 of 6
GFNINEYGIS,VIYADGQRLSYDDKVK,GEITGTFNS,no signal,0 of 6
GFTLNSYGIS,VIYADGRRTFYGVSVK,GRAEGTNIS,no signal,0 of 6
GKTLNSYGIS,VIYSDGRRTFYGDSVK,GQTAGTFDV,no signal,0 of 6
GFTLNSYGIS,RIYSDGRRTFYGDSVK,GRASGTFDS,no signal,0 of 6
GFDINEYGIS,VIYADGMRTAYVQQVK,GQNLGFVEV,no signal,0 of 6
GFTLNEYGIS,VIYSDGRRTFYGLSVK,GRAAVTFDQ,no signal,0 of 6

The opening 11 entries, copied out:

CDR-H1,CDR-H2,CDR-H3,"log10 Kd (nM), mean",seen in
GFDLDEYGIS,VIYADGVRTAYTDSVK,GTNAGTFDV,-0.74,6 of 6
GFNLNEYGIS,VIYADGRRKFYADSVK,GNTAGTFDL,-0.73,6 of 6
GFDLNEYGIS,VIYADGRRTYYADSVK,GEIAGTFDQ,-0.66,5 of 6
GFDLDEYGIS,VIYADGSRTAYTDSVK,GNVAGTFDV,-0.63,6 of 6
GFNLDEYGIS,VIYADGRRTFYADSVK,GQVAGTFDN,-0.61,6 of 6
GFSLDEYGIS,VIYADGRRTFYADSVK,GNLAGTFDS,-0.59,6 of 6
GFDLNDYGIS,VIYADGRRTAYIDSVK,GEVAGTFDV,-0.52,6 of 6
GFDLNEYGIS,VIYADGVRTFYADDVK,GQNAGTFDV,-0.45,6 of 6
GFDLDEYGIS,VIYADGMRTFYTDSVK,GENAGTFDA,-0.45,6 of 6
GFDLNEYGIS,VIYADGRRTAYVDSVK,GVNAGTFDV,-0.42,6 of 6
GFDLDEYGIS,VIYADGMRTAYADSVK,GSNAGTFDV,-0.41,6 of 6

The parent sequence was in this pool as ten entries: three were never detected, three once, and four in most replicates, with averages from 0.34 to 2.37.
As a blank, each scFv also met three strains without target: over all heavy chain designs, 1% of these pairings were detected, typically at 2.08 and seldom below 0.84.
Values of this round are not directly comparable with the first-round values of the same sequences.
Where one sequence has several entries in the source, the replicates are pooled.